In the NIST ThermoML archive (doi:10.1016/j.jct.2015.02.007):

Assay: xn = mol fraction of the nth substance listed
Conditions: 100 kPa, Liquid; for mass density: Vibrating tube method; for speed of sound: Pulse-echo method

OCCOCCOCCOCCO [tetraethylene glycol] + O
Conditions	mass density [kg/m3]	speed of sound [m/s]
313.15 K, x1 = 1	1107.98 ± 0.16	–
318.15 K, x1 = 0.0003	–	1537.8 ± 1.3
318.15 K, x1 = 0.0005	–	1538.8 ± 1.2
318.15 K, x1 = 0.0011	–	1541.1 ± 1.2
318.15 K, x1 = 0.0019	–	1544 ± 1.2
318.15 K, x1 = 0.0033	–	1549.3 ± 1.2
318.15 K, x1 = 0.0051	–	1555.9 ± 1.2
318.15 K, x1 = 0.0077	–	1565.3 ± 1.2
318.15 K, x1 = 0.011	–	1576.2 ± 1.2
318.15 K, x1 = 0.0116	1006.25 ± 0.28	–
318.15 K, x1 = 0.0144	–	1587.1 ± 1.2
318.15 K, x1 = 0.0179	–	1597.3 ± 1.2
318.15 K, x1 = 0.0203	1016.43 ± 0.23	–
318.15 K, x1 = 0.0216	–	1607.7 ± 1.2
318.15 K, x1 = 0.0258	–	1618.5 ± 1.1
318.15 K, x1 = 0.0298	–	1627.8 ± 1.1
318.15 K, x1 = 0.0334	–	1635.5 ± 1.1
318.15 K, x1 = 0.0373	–	1643.2 ± 1.1
318.15 K, x1 = 0.0406	1035.93 ± 0.2	–
318.15 K, x1 = 0.042	–	1651.6 ± 1.1
318.15 K, x1 = 0.0468	–	1659.3 ± 1.1
318.15 K, x1 = 0.0494	–	1663 ± 1.1
318.15 K, x1 = 0.0513	–	1665.5 ± 1.1
318.15 K, x1 = 0.0541	–	1669.1 ± 1.1
318.15 K, x1 = 0.0562	–	1671.7 ± 1.1
318.15 K, x1 = 0.059	–	1674.7 ± 1.1
318.15 K, x1 = 0.0605	1050.29 ± 0.17	–
318.15 K, x1 = 0.0617	–	1677.5 ± 1.1
318.15 K, x1 = 0.0647	–	1680.2 ± 1.1
318.15 K, x1 = 0.0682	–	1683.1 ± 1.1
318.15 K, x1 = 0.0722	–	1686.1 ± 1.1
318.15 K, x1 = 0.077	–	1689 ± 1.1
318.15 K, x1 = 0.078	–	1689.6 ± 1.1
318.15 K, x1 = 0.0806	1061.25 ± 0.15	–
318.15 K, x1 = 0.082	–	1691.5 ± 1.1
318.15 K, x1 = 0.0847	–	1692.7 ± 1.1
318.15 K, x1 = 0.0852	–	1692.8 ± 1.1
318.15 K, x1 = 0.0878	–	1693.7 ± 1.1
318.15 K, x1 = 0.0893	–	1694.2 ± 1.1
318.15 K, x1 = 0.091	–	1694.7 ± 1.1
318.15 K, x1 = 0.0928	–	1695.1 ± 1.1
318.15 K, x1 = 0.0946	–	1695.5 ± 1.1
318.15 K, x1 = 0.095	–	1695.6 ± 1.1
318.15 K, x1 = 0.0975	–	1696 ± 1.1
318.15 K, x1 = 0.0993	–	1696.3 ± 1.1
318.15 K, x1 = 0.1013	–	1696.5 ± 1.1
318.15 K, x1 = 0.1024	1070.29 ± 0.13	–
318.15 K, x1 = 0.1068	–	1696.8 ± 1.1
318.15 K, x1 = 0.1071	–	1696.8 ± 1.1
318.15 K, x1 = 0.1174	–	1696.3 ± 1.1
318.15 K, x1 = 0.1339	–	1693.3 ± 1.1
318.15 K, x1 = 0.1511	1083.25 ± 0.13	–
318.15 K, x1 = 0.1514	–	1688.2 ± 1.1
318.15 K, x1 = 0.1626	–	1684.1 ± 1.1
318.15 K, x1 = 0.1741	–	1679.7 ± 1.1
318.15 K, x1 = 0.1879	–	1674.1 ± 1.1
318.15 K, x1 = 0.2006	1090.51 ± 0.13	–
318.15 K, x1 = 0.2091	–	1665.3 ± 1.1
318.15 K, x1 = 0.23	–	1656.9 ± 1.1
318.15 K, x1 = 0.2494	–	1649.3 ± 1.1
318.15 K, x1 = 0.25	1094.72 ± 0.13	–
318.15 K, x1 = 0.2715	–	1641.2 ± 1.1
318.15 K, x1 = 0.2962	–	1632.8 ± 1.1
318.15 K, x1 = 0.3012	1097.4 ± 0.13	–
318.15 K, x1 = 0.3232	–	1624.4 ± 1.1
318.15 K, x1 = 0.366	–	1612.6 ± 1.1
318.15 K, x1 = 0.4024	1100.31 ± 0.13	–
318.15 K, x1 = 0.416	–	1600.5 ± 1.1
318.15 K, x1 = 0.4896	–	1585.7 ± 1.1
318.15 K, x1 = 0.4964	1101.74 ± 0.14	–
318.15 K, x1 = 0.5655	–	1573.5 ± 1.1
318.15 K, x1 = 0.5985	1102.66 ± 0.14	–
318.15 K, x1 = 0.6606	–	1562.4 ± 1.1
318.15 K, x1 = 0.7018	1103.22 ± 0.14	–
318.15 K, x1 = 0.759	1103.41 ± 0.15	–
318.15 K, x1 = 0.7639	–	1554.2 ± 1.1
318.15 K, x1 = 0.8201	1103.57 ± 0.15	–
318.15 K, x1 = 0.8353	1103.61 ± 0.15	–
318.15 K, x1 = 0.8804	1103.7 ± 0.15	–
318.15 K, x1 = 0.8853	–	1546.5 ± 1.1
318.15 K, x1 = 0.9237	1103.79 ± 0.15	–
318.15 K, x1 = 0.9479	–	1542.2 ± 1.1
318.15 K, x1 = 0.9719	1103.92 ± 0.15	–
318.15 K, x1 = 0.9817	–	1539.8 ± 1.1
318.15 K, x1 = 1	1104.01 ± 0.16	1538.5 ± 1.1
323.15 K, x1 = 0.0116	1003.82 ± 0.28	–
323.15 K, x1 = 0.0203	1013.81 ± 0.23	–
323.15 K, x1 = 0.0406	1032.93 ± 0.2	–
323.15 K, x1 = 0.0605	1046.99 ± 0.17	–
323.15 K, x1 = 0.0806	1057.73 ± 0.15	–
323.15 K, x1 = 0.1024	1066.59 ± 0.13	–
323.15 K, x1 = 0.1511	1079.35 ± 0.13	–
323.15 K, x1 = 0.2006	1086.52 ± 0.13	–
323.15 K, x1 = 0.25	1090.71 ± 0.13	–
323.15 K, x1 = 0.3012	1093.38 ± 0.13	–
323.15 K, x1 = 0.4024	1096.31 ± 0.13	–
323.15 K, x1 = 0.4964	1097.75 ± 0.14	–
323.15 K, x1 = 0.5985	1098.68 ± 0.14	–
323.15 K, x1 = 0.7018	1099.24 ± 0.14	–
323.15 K, x1 = 0.759	1099.44 ± 0.14	–
323.15 K, x1 = 0.8201	1099.6 ± 0.15	–
323.15 K, x1 = 0.8353	1099.63 ± 0.15	–
323.15 K, x1 = 0.8804	1099.72 ± 0.15	–
323.15 K, x1 = 0.9237	1099.82 ± 0.15	–
323.15 K, x1 = 0.9719	1099.94 ± 0.15	–
323.15 K, x1 = 1	1100.02 ± 0.16	–
328.15 K, x1 = 0.0116	1001.24 ± 0.27	–
328.15 K, x1 = 0.0203	1011.07 ± 0.22	–
328.15 K, x1 = 0.0406	1029.83 ± 0.2	–
328.15 K, x1 = 0.0605	1043.61 ± 0.17	–
328.15 K, x1 = 0.0806	1054.13 ± 0.15	–
328.15 K, x1 = 0.1024	1062.83 ± 0.13	–
328.15 K, x1 = 0.1511	1075.4 ± 0.13	–
328.15 K, x1 = 0.2006	1082.51 ± 0.13	–
328.15 K, x1 = 0.25	1086.67 ± 0.13	–
328.15 K, x1 = 0.3012	1089.35 ± 0.13	–
328.15 K, x1 = 0.4024	1092.28 ± 0.13	–
328.15 K, x1 = 0.4964	1093.75 ± 0.13	–
328.15 K, x1 = 0.5985	1094.69 ± 0.14	–
328.15 K, x1 = 0.7018	1095.26 ± 0.14	–
328.15 K, x1 = 0.759	1095.46 ± 0.14	–
328.15 K, x1 = 0.8201	1095.62 ± 0.15	–
328.15 K, x1 = 0.8353	1095.65 ± 0.15	–
328.15 K, x1 = 0.8804	1095.74 ± 0.15	–
328.15 K, x1 = 0.9237	1095.84 ± 0.15	–
328.15 K, x1 = 0.9719	1095.95 ± 0.15	–
328.15 K, x1 = 1	1096.04 ± 0.15	–
333.15 K, x1 = 0.0116	998.51 ± 0.27	–
333.15 K, x1 = 0.0203	1008.17 ± 0.22	–
333.15 K, x1 = 0.0406	1026.6 ± 0.19	–
333.15 K, x1 = 0.0605	1040.12 ± 0.17	–
333.15 K, x1 = 0.0806	1050.46 ± 0.15	–
333.15 K, x1 = 0.1024	1059.02 ± 0.13	–
333.15 K, x1 = 0.1511	1071.42 ± 0.13	–
333.15 K, x1 = 0.2006	1078.47 ± 0.13	–
333.15 K, x1 = 0.25	1082.62 ± 0.13	–
333.15 K, x1 = 0.3012	1085.29 ± 0.13	–
333.15 K, x1 = 0.4024	1088.24 ± 0.13	–
333.15 K, x1 = 0.4964	1089.72 ± 0.13	–
333.15 K, x1 = 0.5985	1090.68 ± 0.14	–
333.15 K, x1 = 0.7018	1091.26 ± 0.14	–
333.15 K, x1 = 0.759	1091.46 ± 0.14	–
333.15 K, x1 = 0.8201	1091.62 ± 0.14	–
333.15 K, x1 = 0.8353	1091.66 ± 0.14	–
333.15 K, x1 = 0.8804	1091.76 ± 0.15	–
333.15 K, x1 = 0.9237	1091.85 ± 0.15	–
333.15 K, x1 = 0.9719	1091.96 ± 0.15	–
333.15 K, x1 = 1	1092.05 ± 0.15	–

Numbers after ± are expanded uncertainties.
